# Literature values in PMC12107553 (ACS chemical neuroscience, 2024).
# Biological target: HIV reverse transcriptase (RT) (Human immunodeficiency virus type 1 group M subtype B, UniProt P03366)
# Settings: read-out: HIV RT IC50; cited from earlier work
smiles,measurement,value
Cc1cc(C#N)cc(C)c1Oc1nc(Nc2ccc(C#N)cc2)nc(N)c1Br [Etravirine],pIC50,6.24

# pIC50: −log10 of the molar value.
